## Binding of CDR-mutated scFvs to a peptide of the spike HR2 region

Target peptide (SARS-CoV-2 spike, HR2 region): PDVDLGDISGINAS

Ab-14 is the parent antibody, in scFv form: VH, then three GGGGS repeats, then VL. The heavy chain is unchanged in all variants.
VH: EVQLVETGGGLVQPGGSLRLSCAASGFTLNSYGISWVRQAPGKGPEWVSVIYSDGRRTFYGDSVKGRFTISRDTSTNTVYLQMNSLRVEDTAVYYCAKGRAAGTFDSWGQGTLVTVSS
VL: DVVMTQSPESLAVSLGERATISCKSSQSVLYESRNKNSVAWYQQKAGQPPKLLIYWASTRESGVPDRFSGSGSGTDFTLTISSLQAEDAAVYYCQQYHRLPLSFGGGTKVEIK

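Phage display of a naive human antibody library on the peptide gave the parent. Designed CDR sequences, proposed from the first random library and measured here. Group labels follow the data file (En: ensemble of fine-tuned language models; GP: Gaussian process model; HC: hill climbing; Gen: genetic algorithm; Gibbs: Gibbs sampling; a sequence that several methods proposed may carry one label only). Affinity was read by AlphaSeq, a pooled yeast mating assay with surface-displayed partners. Pairs that bind mate more often; barcode pairs of the diploids are counted by sequencing. Scores were corrected for input abundance and mapped to Kd with protein pairs of known affinity run in the same pool. Each pool was mated in six replicate cultures.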

Each variant is given by its three light chain CDRs, as the data file delimits them; those of the parent are KSSQSVLYESRNKNSVA, WASTRES, QQYHRLPLS.
Variants here have more than six changes.
Affinities are written as log10 Kd with Kd in nM; a lower number is a better binder.
A mean of the replicates is given; it leaves out those without a signal.
Values of this round are not directly comparable with the first-round values of the same sequences.
Of ten entries with the parent sequence, four were seen in most replicates (averages 0.34 to 2.37), three in one and three in none, so single entries are noisy.
In the paper, a design with two or fewer of six values counts as a poor binder.
As a blank, each scFv also met three strains without target: over all light chain designs, 4% of these pairings were detected, typically at 2.64 and seldom below 1.59. For each scFv, signals with the empty controls are counted beside the result.

For KVMQSMLYESRNKNSVA / HASMREQ / QQYHRLPLQ [GP_Gibbs], the assay gave 0.00 (6 of 6 replicates; controls 0 of 18).
For KLQQMVEYESRNPNSVA / SASTREL / QQYHRLPLS [GP_Gibbs], the assay gave -0.12 (6 of 6 replicates; controls 1 of 18).
For KVSYFNEQVTKKGSNVA / DNETREE / QQYFRLPLS [En_Gen], the assay gave 0.26 (6 of 6 replicates; controls 0 of 18).
For MFSSLMAYGSRYKNSVA / QASTRED / QQYERLPLS [En_HC], the assay gave 1.98 (2 of 6 replicates; controls 0 of 18).
For TISQMLLMQTSHKNSVA / GEETRYD / QQYHRLPLS [En_HC], the assay gave 0.20 (6 of 6 replicates; controls 0 of 18).
For KLDQKNRVNGMACYNVA / DSNHRLD / QQYHRLPLI [En_Gibbs], the assay gave 1.64 (6 of 6 replicates; controls 2 of 18).
For HISYSMQHLSKNKNSVA / NQQTRES / QQYHRLPLS [En_HC], the assay gave 0.85 (6 of 6 replicates; controls 0 of 18).
For KIGATLNTLSHKQNNVA / DLVQREN / QQYFRLPLS [En_Gen], the assay gave 0.23 (6 of 6 replicates; controls 1 of 18).
For KLYQSMGYLSRQKNSIA / DMSRREN / QQYHRLPLS [En_HC], the assay gave 0.12 (6 of 6 replicates; controls 0 of 18).
For KLSMSYRFLTEEKNSIA / ELVTRMS / QQYHRLPLS [En_HC], the assay gave 1.64 (6 of 6 replicates; controls 0 of 18).
For MMSYGWLYGSRNKRNVA / DHETRES / QQYDRLPLS [En_HC], the assay gave 0.33 (6 of 6 replicates; controls 2 of 18).
For KISFQYRYEQLMKNSIA / EVQTRLK / QQYHRLPLS [En_HC], the assay gave 1.40 (5 of 6 replicates; controls 1 of 18).
For HISYSMQHLSKNKNSVA / NQQTRET / QQYHRLPLS [En_HC], the assay gave 0.57 (6 of 6 replicates; controls 0 of 18).
For QLPFERGDGYLEKNNVA / EGTESSH / QQYMRLPLT [En_Gibbs], the assay gave 0.83 (6 of 6 replicates; controls 3 of 18).
For MISDTGLHDSRMKNSVA / NNSTREA / QQYHRLPLS [En_HC], the assay gave 1.82 (5 of 6 replicates; controls 0 of 18).
For KLQNSMLYESRNDNSVA / DASKRES / QQYHRLPLF [GP_Gibbs], the assay gave -0.16 (6 of 6 replicates; controls 1 of 18).
For KLSMITGHMSMQRNNVA / EMVTREN / QQYDRLPLA [En_Gen], the assay gave 1.34 (6 of 6 replicates; controls 0 of 18).
For MIDMGEAPNGQQTSHIA / QGHLKAE / QQYYRLPLC [En_Gibbs], the assay gave 0.69 (6 of 6 replicates; controls 2 of 18).
For MVSMNIYGEYRNRDNVA / HASMREK / QCYDRLPLS [En_Gen], the assay gave 0.57 (6 of 6 replicates; controls 2 of 18).
For KISQMVRVGSTVSNSIA / EMVTRAK / QQYHRLPLA [En_Gen], the assay gave 0.94 (6 of 6 replicates; controls 1 of 18).
For KLGATMNTESTKRNNVA / DLVQREN / QQYFRLPLS [En_Gen], the assay gave 1.21 (6 of 6 replicates; controls 1 of 18).
For KIGMTLNQLMHQKNNVA / DLVEREN / QQYFRLPLS [En_Gen], the assay gave 1.02 (6 of 6 replicates; controls 0 of 18).
For HISQMVMYGSCMKNNVA / QVSTREE / QQYHRLPLS [En_HC], the assay gave 1.43 (4 of 6 replicates; controls 0 of 18).
For IVSQLMLWGLHAKNSIA / EASTRLN / QQYDRLPLF [En_Gen], the assay gave 1.44 (3 of 6 replicates; controls 0 of 18).
For ALSQNGFQQHGMRDSIA / HSDQRLA / QQYYHLPLA [En_Gibbs], the assay gave 0.30 (6 of 6 replicates; controls 1 of 18).
For TIGQMFNGESRIRNSVA / QASTRCE / QSYDRLPLA [En_HC], the assay gave 0.03 (6 of 6 replicates; controls 1 of 18).
For KQQQSDGGMQRNKNSVA / EASTREM / QQYHRLPLS [GP_Gibbs], the assay gave -0.25 (6 of 6 replicates; controls 1 of 18).
For KIQQFYEGESRNKNSVA / SASTRMS / QQYHRLPLS [GP_Gibbs], the assay gave 0.24 (6 of 6 replicates; controls 0 of 18).
For KYSQLVGEESRNKSSVA / NASTREE / QQYHRLPLS [GP_Gibbs], the assay gave 0.40 (6 of 6 replicates; controls 0 of 18).
For KLSAFHQVESINKSNVA / EMVTRES / QQYDRLPLS [En_HC], the assay gave 3.58 (2 of 6 replicates; controls 1 of 18).
For MVSQLMVWGMHARNSIA / EAQMRLN / QQYDRLPLF [En_Gen], the assay gave 1.36 (6 of 6 replicates; controls 0 of 18).

The first 4 entries again:

| CDR-L1 | CDR-L2 | CDR-L3 | group | log10 Kd (nM), mean | replicates with signal | control signals |
|---|---|---|---|---|---|---|
| KVMQSMLYESRNKNSVA | HASMREQ | QQYHRLPLQ | GP_Gibbs | 0.00 | 6 of 6 | 0 of 18 |
| KLQQMVEYESRNPNSVA | SASTREL | QQYHRLPLS | GP_Gibbs | -0.12 | 6 of 6 | 1 of 18 |
| KVSYFNEQVTKKGSNVA | DNETREE | QQYFRLPLS | En_Gen | 0.26 | 6 of 6 | 0 of 18 |
| MFSSLMAYGSRYKNSVA | QASTRED | QQYERLPLS | En_HC | 1.98 | 2 of 6 | 0 of 18 |

Source: Li et al. 2023 (doi:10.1038/s41467-023-39022-2), MIT Lincoln Laboratory and A-Alpha Bio; data file from the FLAb repository.